Results taken from ChEMBL document CHEMBL1275377, “Structure-based design, synthesis, and structure-activity relationship studies of HIV-1 protease inhibitors incorporating phenyloxazolidinones” (J Med Chem, 2010).
pKi: −log10 of the molar value.

Target: Protease (Human immunodeficiency virus 1, UniProt Q9YQ12)
Assay: Inhibition of wild type HIV1 protease by FRET

Cc1cccc(C)c1OCC(=O)N[C@@H](Cc1ccccc1)[C@@H](O)C[C@H](Cc1ccccc1)NC(=O)[C@H](C(C)C)N1CCCNC1=O [LOPINAVIR]
pKi: 11.30
